Sequences and labels used below:
B1: rcSso7d.IL6.1 (designed binder)
chain: MATVKFTYQGEEKQVDISKIKIVGRHGQWIYFWYDEGGGANGNGWVSEKDAPKELLQMLEKQ
B2: rcSso7d.IL6.2 (designed binder)
chain: MATVKFTYQGEEKQVDISKIKIVGRHGQWIYFWYDEGGGADGNGWVSEKDAPKELLQMLEKQ
B3: rcSso7d.IL6.4 (designed binder)
chain: MATVKFTYQGEEKQVDISKIKIVGRSGQWIYFWYDEGGGAWGNGWVSEKDAPKELLQMLEKQ
B4: rcSso7d.IL6.3 (designed binder)
chain: MATVKFTYQGEEKQVDISKIKIVGRHGQWIYFWYDEGGGAYGNGWVSEKDAPKELLQMLEKQ
B5: rcSso7d.IL6.6 (designed binder)
chain: MATVKFTYQGEEKQVDISKIKWVRRDGQIIYFNYDEGGGAWGWGDVSEKDAPKELLQMLEKQ
B6: rcSso7d.IL6.7 (designed binder)
chain: MATVKFTYQGEEKQVDISKIKWVRRWGQWIYFNYDEGGGAWGWGDVSEKDAPKELLQMLEKQ
B7: rcSso7d.IL6.5 (designed binder)
chain: MATVKFTYQGEEKQVDISKIKIVGRWGQWIYFWYDEGGGASGNGWVSEKDAPKELLQMLEKQ
B8: rcSso7d.SA-CBD (designed binder)
chain: MGSSHHHHHHSSGLVPRGSHMATVKFTYQGEEKQVDISKIKIVARDGQYIDFKYDEGGGAYGYGWVSEKDAPKELLQMLEKQGGGGSGGGGSGGGGSPVSGNLKVEFYNSNPSDTTNSINPQFKVTNTGSSAIDLSKLTLRYYYTVDGQKDQTFWCDHAAIIGSNGSYNGITSNVKGTFVKMSSSTNNADTYLEISFTGGTLEPGAHVQIQGRFAKNDWSNYTQSNDYSFKSASQFVEWDQVTAYLNGVLVWG

The EC50 (read off the curve) is the concentration at which the effect is half-maximal. A high value points to lower potency in that assay.

For the first assay, the target named is T1, human interleukin-6 (IL-6) (human, UniProt P05231 30-212).
T1 construct: also called Human IL-6
Nature of the assay: yeast-surface display flow cytometry, 0.1% BSA/PBS. A general note: Flow cytometry measures light scatter and fluorescence of single cells or particles in a stream.
With B1, the binding result is on record as “binds”.
Same read-out and setting: for B2 the value was “binds”; for B3, “binds”.
As to B4, the binding result is recorded as “binds”.
On the same count and under the same terms, next, B5: “binds”.
As to B6, the binding result was “binds”.
The same measure, in the same setting: for B7 the value was “binds”.

A further assay has as its target streptavidin Alexa Fluor 647 (UniProt P22629 37-163).
Experiment: not given
For the molecule B8, the “EC50 (read off the curve)” value was approximately 3000 nM.

(Values after US20190113512A1 (MIT, published 2019).)
